Measurements published in patent US12365850B2, “Water-miscible functional fluid, undiluted stock of water-miscible functional fluid, sterilizer for water-miscible functional fluid, and method of sterilizing water-miscible function fluid” (priority 2020, dated 2025).

Test: pH drop suppression test of water-miscible cutting fluid (circulation and blue LED irradiation)
Format: physicochemical

In the case of `OCCN(CCO)CCO`, the “pH change rate (%)” value (100%×(pH at preparation−pH after continuing use)/(pH at preparation), riboflavin cutting fluid with the named antioxidant) is reported as 9.3%, the “Evaluation of pH drop supression” value (class by pH change rate, riboflavin cutting fluid with the named antioxidant) is reported as “A (pH change rate of 15% or lower)” and the pH change (riboflavin cutting fluid containing the named antioxidant, one month, Table 3 (same values as Table 2)) is reported as 0.8.

Only a part of the results on these compounds is given; other tests are left out.
